For data set [1] the following is noted: human, plasma, 1 µM.
For data set [2] the following is noted: human, microsomes, 1 µM.

For `CC[C@@H]1CN2CCc3c([nH]c4cccc(O)c34)[C@@H]2C[C@@H]1/C(=C\OC)C(=O)OC`, the Fu worked out at 0.027 in data set [1] and 0.534 in data set [2].

(Values after ChEMBL document CHEMBL4376854, “Investigation of the Adrenergic and Opioid Binding Affinities, Metabolic Stability, Plasma Protein Binding Properties, and Functional Effects of Selected Indole-Based Kratom Alkaloids” (J Med Chem, 2020).)
